Data published in patent US6414037B1 (Pharmascience, priority 1998, dated 2002).

Legend:
[1] = tested on: mouse mammary gland culture
sun damage = test: Prevention of sun damage in humans (UVB irradiation); details: 10 patients, formulations of Example 1 and 2 applied 2 hours before and 1 hour after UVB
[2] = tested on: carrageenan-induced inflammation; test: Carrageenan-induced inflammation in rats (paw volume); details: phenylbutazone 80 mg/kg oral
C3H/10T1/2 clone 8 cells = test: Two-stage transformation assay in C3H10T1/2 cells; assay type: cell-based, mouse; details: TPA (0.1 μg/ml)
skin tumors = test: Two-stage mouse skin cancer model (DMBA initiator, TPA promoter); assay type: in vivo, female CD-1 mice
quinone reductase = test: Induction of quinone reductase activity in BP^1Cl hepatoma cells; details: cultured BP^1Cl hepatoma cells, compared with Hepa 1c1c7
[3] = 1 μmol resveratrol topically with TPA twice a week for 18 weeks
[4] = 5 μmol resveratrol topically with TPA twice a week for 18 weeks
[5] = 10 μmol resveratrol topically with TPA twice a week for 18 weeks

SMILES: Oc1ccc(/C=C/c2cc(O)cc(O)c2)cc1
- toxicity by morphological examination of the glands [1]: No signs of toxicity were observed
- prevention of sun damage (sun damage): prevents sun damage in humans
- edema-suppressing activity compared with phenylbutazone [2]: greater than that of phenylbutazone
- No. of wells foci/total no. of wells (C3H/10T1/2 clone 8 cells; DMBA ([…]), resveratrol 10 μM): 2/12
- Total No. of foci/no. wells scored (C3H/10T1/2 clone 8 cells; DMBA ([…]), resveratrol 10 μM): 2/12
- Total No. type II (C3H/10T1/2 clone 8 cells; DMBA ([…]), resveratrol 10 μM): 1
- Total No. type III (C3H/10T1/2 clone 8 cells; DMBA ([…]), resveratrol 10 μM): 1
- Wells with foci (%) (C3H/10T1/2 clone 8 cells; DMBA ([…]), resveratrol 10 μM): 17%
- No. of wells foci/total no. of wells (C3H/10T1/2 clone 8 cells; DMBA ([…]), resveratrol 2.5): 3/12
- Total No. of foci/no. wells scored (C3H/10T1/2 clone 8 cells; DMBA ([…]), resveratrol 2.5): 3/12
- Total No. type II (C3H/10T1/2 clone 8 cells; DMBA ([…]), resveratrol 2.5): 3
- Total No. type III (C3H/10T1/2 clone 8 cells; DMBA ([…]), resveratrol 2.5): 0
- No. of wells foci/total no. of wells (C3H/10T1/2 clone 8 cells; DMBA ([…]), resveratrol 5.0): 2/12
- Total No. of foci/no. wells scored (C3H/10T1/2 clone 8 cells; DMBA ([…]), resveratrol 5.0): 2/12
- Total No. type II (C3H/10T1/2 clone 8 cells; DMBA ([…]), resveratrol 5.0): 1
- Total No. type III (C3H/10T1/2 clone 8 cells; DMBA ([…]), resveratrol 5.0): 1
- Wells with foci (%) (C3H/10T1/2 clone 8 cells; DMBA ([…]), resveratrol 5.0): 17%
- No. of wells foci/total no. of wells (C3H/10T1/2 clone 8 cells; MCA ([…]), resveratrol 5.0 μM): 2/12
- Total No. of foci/no. wells scored (C3H/10T1/2 clone 8 cells; MCA ([…]), resveratrol 5.0 μM): 4/12
- Total No. type II (C3H/10T1/2 clone 8 cells; MCA ([…]), resveratrol 5.0 μM): 3
- Total No. type III (C3H/10T1/2 clone 8 cells; MCA ([…]), resveratrol 5.0 μM): 1
- Wells with foci (%) (C3H/10T1/2 clone 8 cells; MCA ([…]), resveratrol 5.0 μM): 17%
- No. of wells foci/total no. of wells (C3H/10T1/2 clone 8 cells; MCA ([…]), resveratrol 10): 1/12
- Total No. of foci/no. wells scored (C3H/10T1/2 clone 8 cells; MCA ([…]), resveratrol 10): 1/12
- Total No. type II (C3H/10T1/2 clone 8 cells; MCA ([…]), resveratrol 10): 1
- Total No. type III (C3H/10T1/2 clone 8 cells; MCA ([…]), resveratrol 10): 0
- Wells with foci (%) (C3H/10T1/2 clone 8 cells; MCA ([…]), resveratrol 10): 8.3%
- No. of wells foci/total no. of wells (C3H/10T1/2 clone 8 cells; MCA ([…]), resveratrol […]): 2/12
- Total No. of foci/no. wells scored (C3H/10T1/2 clone 8 cells; MCA ([…]), resveratrol […]): 3/12
- Total No. type II (C3H/10T1/2 clone 8 cells; MCA ([…]), resveratrol […]): 3
- Total No. type III (C3H/10T1/2 clone 8 cells; MCA ([…]), resveratrol […]): 0
- Wells with foci (%) (C3H/10T1/2 clone 8 cells; MCA ([…]), resveratrol […]): 17%
- lowering of percentage of mice with tumors (skin tumors; [3]): 50%
- reduction of number of skin tumors per mouse (skin tumors; [3]): 68%
- lowering of percentage of mice with tumors (skin tumors; [4]): 63%
- reduction of number of skin tumors per mouse (skin tumors; [4]): 81%
- lowering of percentage of mice with tumors (skin tumors; [5]): 63%
- reduction of number of skin tumors per mouse (skin tumors; [5]): 76%
- reduction of number of skin tumors per mouse (skin tumors; 25 μmol resveratrol topically with TPA twice a week for 18 weeks): 98%
- toxicity (skin inspection, gross morphology of major organ systems, body weights) (skin tumors; 1-25 μmol topically twice a week for 18 weeks): No overt signs of resveratrol-induced toxicity were observed
- quinone reductase induction response profile (quinone reductase): identical response profile
